Reference: PubChem BioAssay (NCATS)
Only a part is listed here, and it is no random draw. Records with an inconclusive call do not appear. The source made the active and inactive calls. Unless noted, calls follow the shape of the dose curve; as a rule, active = well fitted curve in the direction sought with a large enough effect; inconclusive = small, poorly fitted or top-dose-only effect, or another doubt; inactive = no such curve, though single readings can be large; an effect the other way counts as inactive or inconclusive.

Protein sequences, listed by entry. Tags and fused reporters are not part of them. Lines headed by an entry give the natural chain unless they say otherwise; changes in a name come on top.
UniProt Q99828: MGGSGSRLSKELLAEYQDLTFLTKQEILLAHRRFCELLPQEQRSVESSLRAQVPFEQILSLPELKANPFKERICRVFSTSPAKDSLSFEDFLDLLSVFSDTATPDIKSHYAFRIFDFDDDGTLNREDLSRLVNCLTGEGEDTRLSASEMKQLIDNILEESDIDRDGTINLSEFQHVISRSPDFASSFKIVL
UniProt A8B2U2: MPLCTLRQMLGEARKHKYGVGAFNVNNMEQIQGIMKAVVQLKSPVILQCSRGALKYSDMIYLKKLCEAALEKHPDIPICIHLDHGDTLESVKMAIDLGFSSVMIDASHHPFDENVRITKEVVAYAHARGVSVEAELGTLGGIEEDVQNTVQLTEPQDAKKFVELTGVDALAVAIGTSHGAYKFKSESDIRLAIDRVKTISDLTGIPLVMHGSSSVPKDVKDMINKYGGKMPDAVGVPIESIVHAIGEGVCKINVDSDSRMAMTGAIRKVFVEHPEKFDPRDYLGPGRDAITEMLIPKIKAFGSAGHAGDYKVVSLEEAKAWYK
UniProt P00883: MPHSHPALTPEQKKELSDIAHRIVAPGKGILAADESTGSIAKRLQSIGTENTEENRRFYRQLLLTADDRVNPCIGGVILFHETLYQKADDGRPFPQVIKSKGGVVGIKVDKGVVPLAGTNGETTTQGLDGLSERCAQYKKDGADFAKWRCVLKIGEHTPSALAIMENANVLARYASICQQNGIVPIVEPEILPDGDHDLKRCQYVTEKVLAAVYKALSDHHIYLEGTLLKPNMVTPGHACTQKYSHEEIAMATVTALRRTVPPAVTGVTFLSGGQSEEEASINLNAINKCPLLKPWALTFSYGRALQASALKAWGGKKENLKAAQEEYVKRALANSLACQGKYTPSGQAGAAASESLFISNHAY
UniProt Q07343: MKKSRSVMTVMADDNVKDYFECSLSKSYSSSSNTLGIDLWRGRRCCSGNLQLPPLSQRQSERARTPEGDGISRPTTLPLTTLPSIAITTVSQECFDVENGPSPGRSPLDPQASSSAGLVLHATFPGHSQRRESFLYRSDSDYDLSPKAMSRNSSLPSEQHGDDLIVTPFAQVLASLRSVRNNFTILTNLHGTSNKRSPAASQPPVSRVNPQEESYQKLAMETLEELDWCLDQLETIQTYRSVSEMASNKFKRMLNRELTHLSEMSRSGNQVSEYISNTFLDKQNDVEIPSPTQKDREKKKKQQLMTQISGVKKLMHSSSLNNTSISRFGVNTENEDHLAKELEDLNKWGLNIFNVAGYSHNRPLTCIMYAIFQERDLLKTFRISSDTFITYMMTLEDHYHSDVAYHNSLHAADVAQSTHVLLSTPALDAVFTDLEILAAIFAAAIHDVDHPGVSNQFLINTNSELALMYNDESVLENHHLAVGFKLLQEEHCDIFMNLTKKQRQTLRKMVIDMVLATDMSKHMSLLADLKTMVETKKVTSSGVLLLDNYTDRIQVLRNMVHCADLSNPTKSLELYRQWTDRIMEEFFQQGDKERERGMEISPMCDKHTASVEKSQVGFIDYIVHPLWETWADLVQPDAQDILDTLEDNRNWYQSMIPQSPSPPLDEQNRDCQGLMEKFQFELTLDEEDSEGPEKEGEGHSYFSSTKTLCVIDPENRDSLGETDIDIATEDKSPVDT
UniProt O95398: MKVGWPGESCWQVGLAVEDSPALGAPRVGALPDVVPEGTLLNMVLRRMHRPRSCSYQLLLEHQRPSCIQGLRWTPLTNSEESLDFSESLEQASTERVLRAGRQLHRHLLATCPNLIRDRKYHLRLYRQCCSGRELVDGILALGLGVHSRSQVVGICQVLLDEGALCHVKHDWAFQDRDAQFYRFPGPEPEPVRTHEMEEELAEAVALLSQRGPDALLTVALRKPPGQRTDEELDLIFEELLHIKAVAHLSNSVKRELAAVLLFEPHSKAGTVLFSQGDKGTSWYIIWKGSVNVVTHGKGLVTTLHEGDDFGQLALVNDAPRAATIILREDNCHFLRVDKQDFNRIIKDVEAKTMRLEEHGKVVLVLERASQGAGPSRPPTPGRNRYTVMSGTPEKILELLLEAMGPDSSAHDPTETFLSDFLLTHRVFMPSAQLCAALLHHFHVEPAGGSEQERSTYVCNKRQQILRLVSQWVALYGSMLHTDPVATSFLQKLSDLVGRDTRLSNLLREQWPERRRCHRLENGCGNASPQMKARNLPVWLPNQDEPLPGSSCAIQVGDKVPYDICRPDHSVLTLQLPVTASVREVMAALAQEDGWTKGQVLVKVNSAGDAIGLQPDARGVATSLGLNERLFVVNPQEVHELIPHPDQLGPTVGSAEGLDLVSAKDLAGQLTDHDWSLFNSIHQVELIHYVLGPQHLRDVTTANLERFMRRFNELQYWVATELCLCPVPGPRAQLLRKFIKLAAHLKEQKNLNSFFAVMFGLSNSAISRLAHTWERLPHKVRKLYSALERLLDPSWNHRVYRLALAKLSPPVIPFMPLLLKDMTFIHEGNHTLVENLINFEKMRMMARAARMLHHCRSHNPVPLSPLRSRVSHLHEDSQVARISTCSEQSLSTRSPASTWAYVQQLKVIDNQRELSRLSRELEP
UniProt Q8WZA2: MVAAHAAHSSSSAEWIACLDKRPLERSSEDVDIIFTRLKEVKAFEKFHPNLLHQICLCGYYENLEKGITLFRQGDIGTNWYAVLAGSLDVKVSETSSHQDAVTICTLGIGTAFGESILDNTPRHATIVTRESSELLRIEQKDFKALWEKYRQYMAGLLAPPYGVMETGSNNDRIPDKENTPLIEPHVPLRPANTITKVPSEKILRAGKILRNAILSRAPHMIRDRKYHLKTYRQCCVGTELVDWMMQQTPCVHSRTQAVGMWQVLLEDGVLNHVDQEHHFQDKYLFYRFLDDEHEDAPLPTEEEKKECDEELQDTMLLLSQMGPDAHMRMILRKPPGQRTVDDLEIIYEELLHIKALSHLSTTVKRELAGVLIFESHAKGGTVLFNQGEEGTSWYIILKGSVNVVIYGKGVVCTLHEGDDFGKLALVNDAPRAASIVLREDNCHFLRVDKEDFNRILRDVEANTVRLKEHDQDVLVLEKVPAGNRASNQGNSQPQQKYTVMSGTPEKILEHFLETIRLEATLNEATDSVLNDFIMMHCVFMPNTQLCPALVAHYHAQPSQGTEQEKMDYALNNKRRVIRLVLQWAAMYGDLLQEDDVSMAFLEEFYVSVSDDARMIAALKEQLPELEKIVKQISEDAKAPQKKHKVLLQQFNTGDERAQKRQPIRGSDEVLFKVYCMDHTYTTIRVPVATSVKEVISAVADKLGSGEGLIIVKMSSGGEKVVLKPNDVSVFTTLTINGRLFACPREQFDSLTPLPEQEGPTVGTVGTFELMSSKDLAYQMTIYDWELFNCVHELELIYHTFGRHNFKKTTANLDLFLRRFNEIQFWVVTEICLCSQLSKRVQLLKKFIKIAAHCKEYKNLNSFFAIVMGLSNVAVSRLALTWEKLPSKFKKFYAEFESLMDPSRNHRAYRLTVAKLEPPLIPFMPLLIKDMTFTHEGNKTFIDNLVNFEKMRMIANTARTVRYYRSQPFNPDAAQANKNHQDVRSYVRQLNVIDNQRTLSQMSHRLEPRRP

Key:
[1] = P-glycoprotein substrates identified in KB-8-5-11 adenocarcinoma cell line, qHTS therapeutic library screen (AID 1346987); settings: KB-8-5-11 (P-gp overexpressing) viability, CellTiter-Glo, 72 h; at 44.5 µM (top of the series) unless noted; also: % is scaled to controls: 0 for no effect and ±100 for the full control effect; nearly all actives have a fitted effect of over 65% in size
[2] = molecular target: Calcium and integrin-binding protein 1 (Homo sapiens) (UniProt Q99828); test: Primary qHTS for Identification of Calcium Integrin Binding Protein 1 (CIB1) Competitor (AID 1508620); settings: CIB1-GST / FITC-alphaIIb peptide fluorescence polarization; at 114 µM (top of the series) unless noted;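 also: GST tagged CIB1 binding a fluorescein labelled alphaIIb integrin peptide tracer; top concentration of the series differs between compounds; % is scaled to controls: 0 for no effect and ±100 for the full control effect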
[3] = molecular target: Luciferin 4-monooxygenase (Photinus pyralis) (UniProt P08659); test: Primary firefly luciferase (FLuc) qHTS assay for identification of artifact compounds. (AID 1845220); settings: purified firefly luciferase, luminescence, 5 min; activity change, negative = inhibition: at 54.1 µM (top of the series); also: nearly all actives have a fitted effect of over 60% in size
How it was run: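 FLuc 10 nM; luciferin 10 uM; ATP 10 uM; Tris-acetate pH 7.6, Mg-acetate 10 mM; 15 min RT preincubation; 5 min reaction; luminescence.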

[4] = Primary fluorescence-based thiol-reactive (MSTI) qHTS assay for identification of artifact compounds. (AID 1845221); settings: MSTI thiol-reactivity probe, 1 h; at 53.8 µM (top of the series);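 also: thiol-reactive compounds lower the probe fluorescence signal; nearly all actives have a fitted effect of over 65% in size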
How it was run: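 A multi-concentration qHTS design tested compounds against 4 uM MSTI, pH 7.4 phosphate-buffered saline. Plates were protected from light for 1 h at room temperature before imaging fluorescence.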

[5] = test system: Nanoluciferase (engineered Oplophorus gracilirostris luciferase); test: Primary Nanoluciferase (NLuc) qHTS assay for identification of artifact compounds. (AID 1845222); settings: NLuc-conditioned medium, Nano-Glo luminescence, 5 min; at 54.1 µM (top of the series);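 also: NLuc secreted into diluted conditioned medium of S16 cells; 0% = DMSO and -100% = no enzyme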
How it was run: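 NLuc from S16 cell medium (1:55) plus test compounds, 15 min, room temperature. Luminescence after Nano-Glo (1:100) addition, 5 min.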

[6] = Primary redox qHTS assay for identification of artifact compounds. (AID 1845223); settings: Amplex Red/HRP redox cycling with DTT, fluorescence; at 53.8 µM (top of the series);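 also: 0% = DMSO and 100% = reference compound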
How it was run: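 Amplex Red (25 uM) and HRP (250 mU/mL) in HBSS, with compounds for 15 min, then 250 uM DTT for 30 min, room temperature, dark. Fluorescence 525/598 nm read; normalized to DMSO and 10 uM DA3003; Hill fit.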

CRL-7250 = normal cell line; test: Cytotoxic Profiling of Annotated Libraries Using Quantitative High-Throughput Screening (AID 1296008); settings: Five cell lines viability, CellTiter-Glo ATP luminescence, 48-72 h; stronger effect = lower value; also: nearly all actives have a fitted effect of over 60% in size; as to max response: % is scaled to controls: 0 for no effect and ±100 for the full control effect
HEK293 = test: as above; settings: Five cell lines viability, CellTiter-Glo ATP luminescence, 48-72 h; max response: stronger effect = lower value
HaCat = test: as above; settings: Five cell lines viability, CellTiter-Glo ATP luminescence, 48-72 h; stronger effect = lower value
KB-3-1 = test: as above; settings: Five cell lines viability, CellTiter-Glo ATP luminescence, 48-72 h, stronger effect = lower value
NIH3T3 [7] = test: as above; settings: Five cell lines viability, CellTiter-Glo ATP luminescence, 48-72 h; stronger effect = lower value
NIH3T3 [8] = test: qHTS assay to identify novel small-molecules to repurpose for Merkel cell carcinoma treatment (AID 1296009); settings: MCC and control cell lines, CellTiter-Glo viability, 72 h; at 44.8 µM (top of the series); also: nearly all actives have a fitted effect of over 60% in size
[9] = qHTS Assay for Inhibitors of Fructose-1,6-bisphosphate Aldolase from Giardia Lamblia: Giardia lamblia growth inhibition (AID 2785); settings: Giardia lamblia trophozoite growth inhibition; at 38.3 µM (top of the series); also: % is scaled to controls: 0 for no effect and ±100 for the full control effect; nearly all actives have a fitted effect of over 70% in size
How it was run: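 Whole-parasite growth test: Giardia WB trophozoites in TYI-S-33 (pH 7.0), 100 per well, incubated 48 h at 37C with compound. ATP content was read by ATPlite luminescence.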

[10] = qHTS Assay for Inhibitors of Fructose-1,6-bisphosphate Aldolase from Giardia Lamblia: Mammalian cellular toxicity (AID 2786); settings: mammalian cell viability counter-screen; at 57.5 µM (top of the series);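 also: compound exposure lasted 48 h before reading; % is scaled to controls: 0 for no effect and ±100 for the full control effect; nearly all actives have a fitted effect of over 60% in size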
How it was run: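 Mammalian cytotoxicity surrogate: Chinese hamster ovary cells exposed to compound for 48 h at 37 °C. Cellular ATP then measured with ATPlite reagent, 20 min incubation.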

[11] = molecular target: Fructose-bisphosphate aldolase (Giardia intestinalis (strain ATCC 50803 / WB clone C6)) (UniProt A8B2U2); test: qHTS Assay for Inhibitors of Fructose-1,6-bisphosphate Aldolase from Giardia Lamblia: Primary screen confirmation (AID 2787); settings: purified Giardia aldolase enzyme activity; at 57.5 µM (top of the series);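 also: aldolase product measured through coupled diaphorase step turning resazurin into fluorescent resorufin; % is scaled to controls: 0 for no effect and ±100 for the full control effect; nearly all actives have a fitted effect of over 45% in size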
How it was run: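 Confirmation of primary hits by qHTS up to 57.5 uM final compound. Enzyme at 40 nM with 30 uM ZnCl2, 10 min RT pre-incubation, then substrate/coupling/resorufin-forming detection mix for 20 min before fluorescence read at 525/598 nm.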

[12] = molecular target: Fructose-bisphosphate aldolase A (Oryctolagus cuniculus) (UniProt P00883); test: qHTS Assay for Inhibitors of Fructose-1,6-bisphosphate Aldolase from Giardia Lamblia: Rabbit FBPA Selectivity (AID 2794); settings: Rabbit muscle FBPA enzyme inhibition, selectivity counter-screen; at 57.5 µM (top of the series)
How it was run: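 Selectivity was assessed on rabbit Class I enzyme by qHTS. Product formation was detected by AmpLite Red fluorescence (525/598 nm) after a 20 min RT reaction started with substrate, following 10 min compound preincubation at up to 57.5 uM final.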

[13] = qHTS Assay for Inhibitors of Fructose-1,6-bisphosphate Aldolase from Giardia Lamblia: Coupling assay counterscreen confirmation (AID 2795); settings: GAPDH coupling enzyme counterscreen, biochemical; at 57.5 µM (top of the series); also: % is scaled to controls: 0 for no effect and ±100 for the full control effect; nearly all actives have a fitted effect of over 55% in size
How it was run: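 Readings at 525 nm excitation and 598 nm emission follow a two-step room-temperature protocol: 10 min of compound (up to 57.5 uM final) with coupling enzyme reagent, then 20 min with substrate and AmpLite Red detection reagent.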

[14] = NFAT Signaling Pathway (AID 444; active = well fitted curve in either direction with a large enough effect, not every such curve was filed as active;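 also: carbachol stimulus at about its EC50 of 1 µM final; % is scaled to controls: 0 for no effect and ±100 for the full control effect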); settings: Jurkat NFAT-bla M1, carbachol, beta-lactamase ratio, 5 h; at 7.69 µM (top of the series) unless noted
[15] = molecular target: 3',5'-cyclic-AMP phosphodiesterase 4B (Homo sapiens) (UniProt Q07343); test: qHTS Assay for Inhibitors of PDE-IV (AID 607; active = well fitted activation curve with a large enough effect in the main read-out, with a control signal flat, not every such curve was filed as active; also: % of control where 0% means no effect); settings: HEK293 ACTOne CNG channel cells, membrane potential fluorescence; at 22.9 µM (top of the series)
How it was run: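 The readout is membrane depolarisation from a cAMP-sensing CNG channel, detected with a potential dye at ex 535/em 590. Cells were HEK293-derived (endogenous PDE-IV) at 1000 cells/well, titrated up to 22.9 uM final.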

[16] = molecular target: Rap guanine nucleotide exchange factor 3 (Homo sapiens) (UniProt O95398); test: Confirmatory qHTS for agonist of cAMP-regulated guanine nucleotide exchange factor 3 (EPAC1) (AID 1645881); settings: EPAC1 Rap1B BODIPY-GDP exchange fluorescence, 100% = cAMP control response; at 154 µM (top of the series);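 also: EPAC1 catalysed release of BODIPY-GDP from Rap1B seen as fluorescence loss; nearly all actives have a fitted effect of over 75% in size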
[17] = molecular target: Rap guanine nucleotide exchange factor 4 (Homo sapiens) (UniProt Q8WZA2); test: Confirmatory qHTS for agonist of cAMP-regulated guanine nucleotide exchange factor 4 (EPAC2) (AID 1645884); settings: EPAC2 GEF activity, Rap1B-BODIPY-GDP fluorescence, percent relative to cAMP agonist control; at 17.1 µM (top of the series) unless noted;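 also: nucleotide exchange releases bodipy-GDP from Rap1 and this lowers its fluorescence; % is scaled to controls: 0 for no effect and ±100 for the full control effect; nearly all actives have a fitted effect of over 65% in size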
[18] = molecular target: Rap guanine nucleotide exchange factor 4 (Homo sapiens) (UniProt Q8WZA2); test: Confirmatory qHTS for antagonist of cAMP-regulated guanine nucleotide exchange factor 4 (EPAC2) (AID 1645885); settings: EPAC2 Rap1B-BODIPY-GDP exchange fluorescence, biochemical; at 12.7 µM (top of the series) unless noted; also: % is scaled to controls: 0 for no effect and ±100 for the full control effect; nearly all actives have a fitted effect of over 25% in size
[19] = molecular target: Rap guanine nucleotide exchange factor 3 (Homo sapiens) (UniProt O95398); test: Counterscreen qHTS for antagonist of cAMP-regulated guanine nucleotide exchange factor 3 (EPAC1) (AID 1645888); settings: Rap1B-BODIPY-GDP nucleotide exchange, fluorescence; at 30.8 µM (top of the series) unless noted;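 also: fluorescence loss as bound BODIPY-GDP is released from Rap1B; % of control where 0% means no effect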
How it was run: (§1)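 Rap1B-BODIPY-GDP 250 nM + GDP 50 uM; cpds 7-pt, final 9.74 nM–152 uM (activator mode) or from 7.32 nM upwards (inhibitor mode); RT; FI 480/540 nm at 5 and 30 min, then ± cAMP, reread.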

[20] = molecular target: Rap guanine nucleotide exchange factor 3 (Homo sapiens) (UniProt O95398); test: Counterscreen qHTS for agonist of cAMP-regulated guanine nucleotide exchange factor 3 (EPAC1) (AID 1645889); settings: EPAC1 Rap1B-BODIPY-GDP exchange, fluorescence; at 30.8 µM (top of the series) unless noted; also: % of control where 0% means no effect; nearly all actives have a fitted effect of over 40% in size
How it was run: as §1

CN(C(=O)Cc1ccc(Cl)c(Cl)c1)[C@H]1CCCC[C@H]1N1CCCC1
inactive: activity change, negative = cytotoxicity [1] -8.53% | activity change, negative = inhibition [2] 4.47% | outcome [3] | activity change, negative = thiol reactive [4] 25.8% | activity, negative = inhibition [5] -0.53% | redox activity (% of DA3003) [6] 1.28% | max response (CRL-7250) -18.9% | max response (HEK293) -117% | max response (HaCat) -22% | max response (KB-3-1) 1.19% | outcome (NIH3T3 [7]) inactive; activator | outcome (NIH3T3 [8]) inactive; activator

CC(C)(C)C(=O)NC(Sc1ccncn1)C(Cl)(Cl)Cl (stereo unspecified)
inactive: activity change, negative = inhibition [9] 6.82% | viability change, negative = toxicity [10] 7.38% | activity change, negative = inhibition [11] 3.89% | activity, negative = inhibition [12] 2.5% | activity change, negative = inhibition [13] -0.484%

CCCOP(=S)(Nc1nc(N)cc(=O)[nH]1)OCCC
inactive: activity change, negative = inhibition [9] -4.36% | viability change, negative = toxicity [10] -5.04% | activity change, negative = inhibition [11] 3.21% | activity, negative = inhibition [12] 2.8% | activity change, negative = inhibition [13] -5.88%

C[C@@H](O)COc1ccc([As](=O)(O)O)cc1N
inactive: activity change, negative = inhibition [14] 3.4% | activation (PDE inhibition) [15] -3.38%

CC(C)(C)C(=O)NC(Sc1ncccn1)C(Cl)(Cl)Cl (stereo unspecified)
inactive: activity change, negative = inhibition [9] -13.3% | viability change, negative = toxicity [10] 3.04% | activity change, negative = inhibition [11] 8.77% | activity, negative = inhibition [12] 8.17% | activity change, negative = inhibition [13] -8.97%

C[N+]1=C2C=CC=CC=C2SC12C([N+](=O)[O-])=CC([N+](=O)[O-])=C[C-]2[N+](=O)[O-] (stereo unspecified)
inactive: activity, negative = inhibition [12] -24.9% | activity change, negative = inhibition [13] -27.3% | activation [16] -3.47% | activation [17] 1.06% [at 154 µM] | activity change, negative = inhibition [18] 7.02% [at 114 µM] | activity change, negative = inhibition [19] 6.67% [at 154 µM] | activation [20] 1.81% [at 154 µM]
